Reference: patent US20050153947A1, “Methods and reagents for the treatment of diseases and disorders associated with increased levels of proinflammatory cytokines” (priority 2002, published 2005)

System: IL-2
Experiment: IL-2 secretion by white blood cells/PBMC stimulated with phorbol 12-myristate 13-acetate and ionomycin (PI), ELISA
Settings: R(+) fluoxetine alone; concentration (μM), 58 to 0.028

CNCC[C@@H](Oc1ccc(C(F)(F)F)cc1)c1ccccc1 [R(+) Fluoxetine]
percent inhibition of cytokine secretion, IL-2: 72%
